Patent US8466291B2, “1,5-dideoxy-1,5-imino-D-glucitol compounds” (Academia Sinica, priority 2008, dated 2013)

Protein sequences, listed by entry. Tags and fused reporters are not part of them. Residues count along the entry.
UniProt O60502, whole entry: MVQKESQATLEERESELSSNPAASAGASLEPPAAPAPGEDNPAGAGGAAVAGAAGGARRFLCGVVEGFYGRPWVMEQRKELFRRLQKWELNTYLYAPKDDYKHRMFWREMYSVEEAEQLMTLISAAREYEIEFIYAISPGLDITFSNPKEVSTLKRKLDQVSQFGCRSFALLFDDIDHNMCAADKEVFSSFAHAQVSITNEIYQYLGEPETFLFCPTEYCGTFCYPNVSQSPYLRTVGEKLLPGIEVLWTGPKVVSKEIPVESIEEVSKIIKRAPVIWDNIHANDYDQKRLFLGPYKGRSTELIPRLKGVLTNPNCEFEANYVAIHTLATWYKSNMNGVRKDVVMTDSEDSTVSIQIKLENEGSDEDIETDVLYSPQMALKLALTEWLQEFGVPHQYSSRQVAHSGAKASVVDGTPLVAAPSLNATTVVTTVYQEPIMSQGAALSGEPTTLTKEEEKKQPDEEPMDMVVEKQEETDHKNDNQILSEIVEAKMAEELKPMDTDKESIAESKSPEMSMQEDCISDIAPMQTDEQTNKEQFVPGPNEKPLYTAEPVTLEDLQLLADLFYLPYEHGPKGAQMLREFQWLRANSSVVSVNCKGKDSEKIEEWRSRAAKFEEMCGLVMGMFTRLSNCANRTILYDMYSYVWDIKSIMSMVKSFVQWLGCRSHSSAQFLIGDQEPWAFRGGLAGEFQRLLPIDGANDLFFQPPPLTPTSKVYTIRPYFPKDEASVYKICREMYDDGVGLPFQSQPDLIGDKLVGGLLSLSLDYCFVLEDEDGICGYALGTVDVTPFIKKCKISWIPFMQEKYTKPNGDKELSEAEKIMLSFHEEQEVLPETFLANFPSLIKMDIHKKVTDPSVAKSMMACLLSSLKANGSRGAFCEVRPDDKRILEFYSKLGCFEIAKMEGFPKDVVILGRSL
UniProt Q5L8V6, 1-739: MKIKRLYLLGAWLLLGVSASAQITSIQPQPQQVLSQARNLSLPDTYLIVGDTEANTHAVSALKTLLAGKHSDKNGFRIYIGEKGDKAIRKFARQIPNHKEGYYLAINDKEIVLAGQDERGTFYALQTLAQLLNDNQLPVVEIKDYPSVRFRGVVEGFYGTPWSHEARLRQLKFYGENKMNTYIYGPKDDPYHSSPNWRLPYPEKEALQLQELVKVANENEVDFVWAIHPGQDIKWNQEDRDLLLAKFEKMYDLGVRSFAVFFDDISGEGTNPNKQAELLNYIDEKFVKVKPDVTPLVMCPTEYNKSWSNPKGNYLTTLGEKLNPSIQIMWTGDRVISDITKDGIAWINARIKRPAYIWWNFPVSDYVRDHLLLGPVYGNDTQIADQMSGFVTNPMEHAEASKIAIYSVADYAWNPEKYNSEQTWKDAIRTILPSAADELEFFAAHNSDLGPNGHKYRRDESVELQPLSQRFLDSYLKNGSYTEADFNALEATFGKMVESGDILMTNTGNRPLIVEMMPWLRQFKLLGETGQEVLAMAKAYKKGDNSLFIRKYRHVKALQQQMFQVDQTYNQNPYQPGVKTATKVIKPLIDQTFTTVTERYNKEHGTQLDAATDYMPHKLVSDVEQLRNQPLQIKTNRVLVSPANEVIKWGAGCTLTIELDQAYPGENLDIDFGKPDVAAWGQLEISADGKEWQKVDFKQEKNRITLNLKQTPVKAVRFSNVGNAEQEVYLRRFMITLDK

Legend:
Human O-GlcNAcase = Human O-GlcNAcase (Homo sapiens, UniProt O60502); test: Inhibition of human O-GlcNAcase; type: biochemical; details: Human O-GlcNAcase over human HEX B; Table 2
Method: Human O-GlcNAcase was also prepared and tested according to the procedures described in Gao et al., J. Biol. Chem. 2001, 276, 9838-9845 and Macauley et al., J. Am. Chem. Soc. 2005, 127, 17202-17203.

[1] = biological target: Bacteroids fragilis O-GlcNAcase (Bacteroides fragilis, UniProt Q5L8V6); test: Michaelis-Menten/Lineweaver-Burk kinetic inhibition of O-GlcNAcase with 4MU-NAG substrate; type: biochemical; details: Table 1
BV2 cells = test: GM2 ganglioside level in BV2 cells by high performance thin-layer chromatography; details: 200 nM, 10 days, HPTLC
Method: Additionally, BV2 cells were treated with Compound 3 (200 nM), Compound ix (200 nM), or PUGNAc (200 nM) for 10 days. Glycosphingolipids (e.g., GM2) were extracted from the treated cells with chloroform/methanol and the ganglioside levels were determined by high performance thin-layer chromatography.

## CC(=O)N[C@H]1CN[C@H](CO)[C@@H](O)[C@@H]1O
Human O-GlcNAcase
  Selectivity (KI O-GlcNAcase/KI HEX): 43
[1]; Bacteroids fragilis O-GlcNAcase over human HEX B
  Selectivity (KI O-GlcNAcase/KI HEX): 12
[1]; read-out: KI of O-GlcNAcase, Bacteroids fragilis O-GlcNAcase
  Ki: 6.7 µM
BV2 cells
  GM2 level in treated cells: only modestly increased
